Screening data as filed in PubChem BioAssay.
S100A4 MyoIIA: inhibitors of human S100A4 binding to myosin IIA peptide; P26447; S100A4/TAMRA-MyoIIA peptide fluorescence polarization; inhibition, % at 10.7 µM; 0.14% of 360,000 active;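 active means mean inhibition of at least 70% across replicates, with every replicate also reaching that level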
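System – human S100A4 monomer protein, biochemical binding assay · Buffer or medium – Calcium-containing HEPES buffer, pH 7.2 · Timing – 5 min between mix addition and reading · Also added – TAMRA-labelled myosin IIA heavy-chain peptide probe, 5 nM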
PDI inh: blocks human protein disulfide isomerase activity; P07237; PDI insulin aggregation turbidity, A650, 90 min; inhibition, % at 10 µM; 0.052% of 350,000 active; AID 588391;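 active means mean inhibition across replicates of 30% or more, whatever share of single replicates reach that level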
FGF22 binding: FGF22 (human) thermal shift binding; recombinant FGF22 thermal shift, SYPRO orange fluorescence; percent of sucrose octasulfate shift, DMSO zero; activity (Tm shift, normalised), % at 9.99 µM; 1.5% of 340,000 active;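 active means mean Tm shift, scaled 0 neutral to 100 positive control, at about 1.3% or above, every replicate too, limit read from the data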
UUG fidelity: alters start codon recognition fidelity in yeast. S. cerevisiae UUG-firefly luciferase reporter, luminescence/redox ratio. AID 602363. activity score, % at 18.7 µM. hit rate 0.13% among 350,000;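 active = replicate mean at a twofold rise or more, about +100% in these data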;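 note: firefly luciferase made from a UUG start codon reports start codon fidelity; reporter light over untreated wells divided by growth signal over untreated wells; some hits fall short of that in this replicate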
SIRT5 inh: sirtuin-5 (human) deacylase inhibition; Purified SirT5, succinyl-peptide AMC, trypsin-coupled fluorescence; inhibition, % at 15 µM; 1.1% of 330,000 active; AID 652115; in the data active means inhibition above about 15%
ERp5 inh: blocks human ERp5 reductase activity on insulin; Q15084; ERp5 insulin aggregation, absorbance 650 nm, 90 min; inhibition, % at 9.99 µM; 0.05% of 350,000 active; AID 651711;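 active means mean replicate inhibition above about 25%, with every replicate also reaching it, limit read from the data, passing the limit was not always enough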
An asterisk follows results filed as active. This is a sample that favours compounds with a hit; in the whole collection about 2.2% have one here.

How did Cc1ccc(N(CC(=O)NC(C)(C)C)C(=O)CNC(=O)c2cccs2)c(C)c1 do in these assays?
S100A4 MyoIIA: 2.6; PDI inh: -10.3; FGF22 binding: 43.1*; SIRT5 inh: -0.8; ERp5 inh: 0.3

What do the screens show for `CCCNC(=O)Nc1ccc2c(c1)C(=O)N(C)[C@H]1CC[C@@H](CC(=O)O)O[C@@H]1CO2`?
FGF22 binding: 0.0; UUG fidelity: -14.7

What do the screens show for `C[C@H]1CN([C@@H](C)CO)S(=O)(=O)c2ccc(C3=CCCCC3)cc2O[C@@H]1CN(C)C(=O)Cc1ccncc1`?
S100A4 MyoIIA: 0.2; FGF22 binding: 0.0; SIRT5 inh: 2.6; ERp5 inh: 0.5

How did Nc1n[nH]c2cc(=O)n(-c3cccc(C(F)(F)F)c3)nc12 do in these assays?
S100A4 MyoIIA: -1.1; PDI inh: 10.5; FGF22 binding: 43.4*; UUG fidelity: -12.6; SIRT5 inh: 0.8; ERp5 inh: -1.9

Results for Cc1noc(C)c1NC(=O)Nc1ccc2c(c1)CC(=O)N([C@H](C)CO)C[C@H](C)[C@@H](CN(C)C(=O)Nc1ccc(F)cc1)O2 ?
S100A4 MyoIIA: 5.8; FGF22 binding: -0.4; UUG fidelity: 9.4; SIRT5 inh: 5.5; ERp5 inh: -23.5

How did O=C(c1nn(-c2ccccc2)c(=O)c2ccccc12)N1CCN(c2ccccn2)CC1 do in these assays?
PDI inh: -0.2; UUG fidelity: -10.0

Results for CCCn1nc(C(=O)N2CCN(c3ccccn3)CC2)c2ccccc2c1=O ?
S100A4 MyoIIA: -2.6; PDI inh: 2.9; FGF22 binding: 44.1*; UUG fidelity: -4.1; ERp5 inh: -10.9

Results for CCCC#Cc1cnc2c(c1)C(=O)N([C@@H](C)CO)C[C@H](C)[C@@H](CN(C)S(=O)(=O)c1ccccc1)O2 ?
S100A4 MyoIIA: 12.4; FGF22 binding: -0.6; UUG fidelity: 1.5; SIRT5 inh: 2.0; ERp5 inh: 3.4

What do the screens show for `CCOC(=O)C1CCN(C(=O)CN(C)S(=O)(=O)c2cc(C)ccc2OC)CC1`?
PDI inh: -0.1; UUG fidelity: 11.1

What do the screens show for `COc1ccc(C)cc1S(=O)(=O)N(C)CC(=O)N1CCC(C(N)=O)CC1`?
S100A4 MyoIIA: 0.5; PDI inh: 0.0; FGF22 binding: 43.0*; UUG fidelity: -9.8; SIRT5 inh: 0.4; ERp5 inh: 2.3

Overlap with the part before: 3 entries, followed by the next part.
Results for CCCC#Cc1cnc2c(c1)C(=O)N([C@@H](C)CO)C[C@H](C)[C@@H](CN(C)S(=O)(=O)c1ccccc1)O2 ?
S100A4 MyoIIA: 12.4; FGF22 binding: -0.6; UUG fidelity: 1.5; SIRT5 inh: 2.0; ERp5 inh: 3.4

What do the screens show for `CCOC(=O)C1CCN(C(=O)CN(C)S(=O)(=O)c2cc(C)ccc2OC)CC1`?
PDI inh: -0.1; UUG fidelity: 11.1

What do the screens show for `COc1ccc(C)cc1S(=O)(=O)N(C)CC(=O)N1CCC(C(N)=O)CC1`?
S100A4 MyoIIA: 0.5; PDI inh: 0.0; FGF22 binding: 43.0*; UUG fidelity: -9.8; SIRT5 inh: 0.4; ERp5 inh: 2.3

How did CCC(=O)N[C@H]1CC[C@H](CC(=O)NCC2CC2)O[C@H]1CO do in these assays?
S100A4 MyoIIA: 3.6; SIRT5 inh: -3.1; ERp5 inh: 0.4

Results for C[C@H]1CCCCO[C@H](CN(C)C(=O)c2ccncc2)[C@@H](C)CN([C@@H](C)CO)C(=O)c2cc(NS(=O)(=O)c3ccc(F)cc3)ccc2O1 ?
S100A4 MyoIIA: 6.2; FGF22 binding: 0.8; UUG fidelity: 1.1; SIRT5 inh: 1.2; ERp5 inh: -3.5

How did Cc1noc(C)c1NC(=O)Nc1ccc2c(c1)C(=O)N([C@@H](C)CO)C[C@@H](C)[C@H](CN(C)C(=O)Nc1ccc3c(c1)OCO3)OCCCC[C@@H](C)O2 do in these assays?
S100A4 MyoIIA: -3.6; FGF22 binding: -0.3; UUG fidelity: 5.3; SIRT5 inh: -2.3; ERp5 inh: 1.6

Results for CC(=O)N1CCN(C(=O)c2cc(S(=O)(=O)Nc3ccc(S(C)(=O)=O)cc3)ccc2Cl)CC1 ?
S100A4 MyoIIA: -2.2; PDI inh: 9.8; FGF22 binding: 43.6*; SIRT5 inh: 0.6; ERp5 inh: -0.2

What do the screens show for `CCN1CCN(C(=O)c2cc(S(=O)(=O)Nc3ccc(S(C)(=O)=O)cc3)ccc2Cl)CC1`?
S100A4 MyoIIA: 0.0; PDI inh: -1.8; FGF22 binding: 0.0; SIRT5 inh: -1.4; ERp5 inh: 1.9

Results for C[C@@H]1CN([C@@H](C)CO)C(=O)c2cc(NC(=O)c3ccccc3)ccc2O[C@@H](C)CCCCO[C@H]1CN(C)Cc1ccc(C(=O)O)cc1 ?
S100A4 MyoIIA: -5.6; FGF22 binding: -0.2; UUG fidelity: -0.7; SIRT5 inh: -4.0; ERp5 inh: 1.3

What do the screens show for `CCC(=O)N1C[C@H](O)COC[C@@H]2O[C@@H](CC(=O)NCC3CCCCC3)CC[C@H]21`?
S100A4 MyoIIA: 2.0; FGF22 binding: -0.2; UUG fidelity: -5.5; SIRT5 inh: 1.7; ERp5 inh: 1.7

How did N#Cc1ccc(C(=O)N2CCN(S(=O)(=O)c3ccc(Br)s3)CC2)cc1 do in these assays?
S100A4 MyoIIA: 0.3; PDI inh: 2.5; FGF22 binding: 43.8*; SIRT5 inh: -1.0; ERp5 inh: 0.5

How did C[C@H]1CN([C@@H](C)CO)C(=O)Cc2cc(NS(=O)(=O)c3ccc(F)cc3)ccc2O[C@@H]1CN(C)C do in these assays?
S100A4 MyoIIA: 2.4; FGF22 binding: -0.1; UUG fidelity: -4.7; SIRT5 inh: 5.5; ERp5 inh: -15.9

Results for COc1ccccc1C1=NOC(COC(=O)c2ccc(Br)cc2)C1 (stereo unspecified) ?
S100A4 MyoIIA: 3.8; PDI inh: -19.5; FGF22 binding: 43.0*; UUG fidelity: -13.7; SIRT5 inh: -0.2; ERp5 inh: 0.6

How did CNC(=S)NCCc1ccc(OC)cc1 do in these assays?
S100A4 MyoIIA: 0.6; PDI inh: -0.4; FGF22 binding: 43.4*; SIRT5 inh: 0.3; ERp5 inh: 2.1

What do the screens show for `COc1ccc(CCNC(=S)Nc2ccc(OC)cc2)cc1`?
PDI inh: -3.8

How did O=C(COC(=O)c1cccc(S(=O)(=O)Nc2ccc(F)cc2)c1)NCCN1C(=O)CSC1=O do in these assays?
S100A4 MyoIIA: -3.9; PDI inh: -3.3; FGF22 binding: 0.2; UUG fidelity: -8.3; SIRT5 inh: 16.7*; ERp5 inh: -21.8

What do the screens show for `Cc1ccc(C(=O)OCC(=O)NCCN2C(=O)CSC2=O)cc1[N+](=O)[O-]`?
S100A4 MyoIIA: -0.3; PDI inh: 14.3; FGF22 binding: 0.1; UUG fidelity: -12.0; SIRT5 inh: -3.4; ERp5 inh: 1.8

What do the screens show for `O=C(Nc1ccc(F)cc1)N1CC(=O)N2[C@H](CO)[C@@H](c3ccc(C#CC4CC4)cc3)[C@@H]2C1`?
S100A4 MyoIIA: -6.9; SIRT5 inh: 0.2; ERp5 inh: 1.1

Results for C[C@H]1CN([C@@H](C)CO)C(=O)Cc2cc(NC(=O)Cn3cnnn3)ccc2O[C@H]1CN(C)Cc1ccccc1 ?
S100A4 MyoIIA: -4.2; FGF22 binding: 0.0; UUG fidelity: -0.2; SIRT5 inh: -1.0; ERp5 inh: -5.4

Results for CCN1C(C)=C(C)S/C1=C1\SC(=S)N(C2CCCCC2)C1=O ?
S100A4 MyoIIA: -9.3; PDI inh: -8.1; FGF22 binding: 44.1*; SIRT5 inh: 1.6; ERp5 inh: -2.4

How did COC(=O)c1cccc(Cn2nc(C)c([N+](=O)[O-])c2C)c1 do in these assays?
S100A4 MyoIIA: 17.7; PDI inh: -6.2; FGF22 binding: -0.3; SIRT5 inh: 15.3*; ERp5 inh: 5.6
